Apparent affinities of Ab-14 variants for a coronavirus HR2 peptide

From the AlphaSeq antibody data of Li et al. 2023 (doi:10.1038/s41467-023-39022-2), copy in the FLAb collection.

All variants were tested on one target, the spike HR2 peptide PDVDLGDISGINAS (SARS-CoV-2).

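The parent was found by panning a naive human phage display library on the peptide. The variants were designed computationally from a first round of random CDR variants and then made and measured. Several design methods are mixed in this list. AlphaSeq pools MATa yeast showing the antibodies with MATalpha yeast showing the peptide. Binding brings cells together so that they mate, and sequencing counts the barcode pairs among the diploids. Scores were corrected for input abundance and mapped to Kd with protein pairs of known affinity run in the same pool. Each pool was mated in six replicate cultures.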

Parent scFv Ab-14: VH joined to VL by a 15-residue (Gly4Ser)3 linker. Changes lie in the heavy chain CDRs alone.
VH: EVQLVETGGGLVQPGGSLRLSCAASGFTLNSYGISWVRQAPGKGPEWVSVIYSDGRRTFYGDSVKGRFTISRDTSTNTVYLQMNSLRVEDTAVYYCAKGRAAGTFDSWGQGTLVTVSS
VL: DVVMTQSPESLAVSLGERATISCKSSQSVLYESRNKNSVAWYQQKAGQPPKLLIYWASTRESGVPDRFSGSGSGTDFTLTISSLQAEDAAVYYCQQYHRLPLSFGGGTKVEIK

The whole VH of each variant is written out. This list holds designs with at most six substitutions. Scale: log10 of Kd in nM, estimated from mating counts; low values are strong binders. Averages over replicates are reported, and they cover detected replicates only. A pair that was not seen in that replicate is written "nd"; this usually means weak binding, but a binder can also be missed. Values of this round are not directly comparable with the first-round values of the same sequences. Of ten entries with the parent sequence, four were seen in most replicates (averages 0.34 to 2.37), three in one and three in none, so single entries are noisy. As a blank, each scFv also met three strains without target: over all heavy chain designs, 1% of these pairings were detected, typically at 2.08 and seldom below 0.84. The authors averaged sequences with at least three values out of six and counted those with two or fewer as poor binders.

With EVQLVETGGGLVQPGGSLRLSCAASGFDLNSYGISWVRQAPGKGPEWVSVIYSDGRRTFYIDSVKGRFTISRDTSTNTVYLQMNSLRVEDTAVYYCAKGREAGTFDSWGQGTLVTVSS the result was 0.12, -0.50, -0.41, -0.36, -0.13, -0.06 (mean -0.22).
With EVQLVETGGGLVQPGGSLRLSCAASGFSLNEYGISWVRQAPGKGPEWVSVIYSDGRRTFYMDSVKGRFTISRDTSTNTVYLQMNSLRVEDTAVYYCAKGQAAGTFDSWGQGTLVTVSS the result was 0.54, 0.78, 0.47, 0.27, 0.36, 0.38 (mean 0.46).
With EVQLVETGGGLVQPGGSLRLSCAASGTTLNSYGISWVRQAPGKGPEWVSVIYSDGRRTYYLDSVKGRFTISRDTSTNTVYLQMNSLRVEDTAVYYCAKGAAAGTFDSWGQGTLVTVSS the result was nd, 2.59, 2.19, nd, 2.13, nd (mean 2.30).
With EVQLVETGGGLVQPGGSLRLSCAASGFTLQSYGISWVRQAPGKGPEWVSVIYSDGKRTFYGDSVKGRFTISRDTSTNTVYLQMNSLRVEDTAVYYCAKGRAAGTFDSWGQGTLVTVSS the result was 1.43, nd, 2.37, 1.66, nd, nd (mean 1.82).
With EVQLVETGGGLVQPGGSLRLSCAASGHTLNKYGISWVRQAPGKGPEWVSVIYSDGYRTFYGDSVKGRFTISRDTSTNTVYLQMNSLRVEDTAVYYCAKGRAAGTFDSWGQGTLVTVSS the result was nd, nd, nd, nd, nd, nd.
With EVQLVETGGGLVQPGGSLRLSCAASGFTLNSYGISWVRQAPGKGPEWVSVIYSDGRRTAYADSVKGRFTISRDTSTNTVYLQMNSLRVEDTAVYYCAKGRAGGTFDSWGQGTLVTVSS the result was 1.44, 1.92, 1.47, 1.89, 1.48, 1.30 (mean 1.58).
With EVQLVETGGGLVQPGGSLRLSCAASGFWLNEYGISWVRQAPGKGPEWVSVIYSDGRRTFYQDSVKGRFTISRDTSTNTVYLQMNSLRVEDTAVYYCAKGRTAGTFDSWGQGTLVTVSS the result was 1.31, 0.02, 0.35, 1.57, 0.82, 0.43 (mean 0.75).
With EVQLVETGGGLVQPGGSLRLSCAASGFTLNQYGISWVRQAPGKGPEWVSVIYSDGNRTFYSDSVKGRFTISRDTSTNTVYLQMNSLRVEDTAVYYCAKGRAAGNFDSWGQGTLVTVSS the result was nd, nd, nd, nd, nd, nd.
With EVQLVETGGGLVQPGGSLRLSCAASGFTLNSYGISWVRQAPGKGPEWVSVIYSDGKRTFYADNVKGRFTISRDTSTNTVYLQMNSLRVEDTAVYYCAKGQAAGTFDLWGQGTLVTVSS the result was 2.33, 0.31, 2.24, 1.69, 1.13, 0.57 (mean 1.38).
With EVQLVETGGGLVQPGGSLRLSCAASGFTLNNTGISWVRQAPGKGPEWVSVIYSDGRRKFYGDQVKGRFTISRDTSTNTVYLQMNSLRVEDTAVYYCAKGRAAGTFDSWGQGTLVTVSS the result was nd, nd, nd, nd, nd, nd.
With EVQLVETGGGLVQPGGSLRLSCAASGFDLNSYGISWVRQAPGKGPEWVSVIYSDGRRTFYTDSVKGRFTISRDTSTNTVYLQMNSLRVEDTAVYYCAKGHAAGTFDSWGQGTLVTVSS the result was nd, nd, nd, nd, nd, nd.
With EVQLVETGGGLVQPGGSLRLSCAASGFSLNSYGISWVRQAPGKGPEWVSVIYSDGRRTFYADSVKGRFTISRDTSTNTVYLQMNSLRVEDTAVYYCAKGKAAGTFDNWGQGTLVTVSS the result was 0.44, 0.97, 0.11, 0.95, 0.49, 1.21 (mean 0.69).
With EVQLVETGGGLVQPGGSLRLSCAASGFELNEYGISWVRQAPGKGPEWVSVIYSDGRRTFYKDSVKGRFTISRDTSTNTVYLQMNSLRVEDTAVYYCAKGRAAGTFDSWGQGTLVTVSS the result was 0.19, 0.03, -0.17, -0.14, 0.03, 0.16 (mean 0.02).
With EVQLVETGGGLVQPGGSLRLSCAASGFDLNEYGISWVRQAPGKGPEWVSVIYADGRRTFYKDSVKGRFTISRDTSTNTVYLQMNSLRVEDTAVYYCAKGENAGTFDSWGQGTLVTVSS the result was 0.48, -0.23, 1.27, nd, nd, -0.32 (mean 0.30).
With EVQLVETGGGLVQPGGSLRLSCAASGFTLNNYGISWVRQAPGKGPEWVSVIYSDGRRTFYHDSVKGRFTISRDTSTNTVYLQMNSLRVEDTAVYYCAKGRAAGTFDSWGQGTLVTVSS the result was nd, 0.99, 2.41, 0.87, nd, nd (mean 1.42).
With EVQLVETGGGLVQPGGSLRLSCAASGFTLNSYGISWVRQAPGKGPEWVSVIYSDGRRTFYGDSVKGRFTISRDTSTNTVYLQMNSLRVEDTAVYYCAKGRIAGRFRTWGQGTLVTVSS the result was nd, nd, nd, nd, nd, nd.
With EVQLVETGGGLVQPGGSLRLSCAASGFDLNSYGISWVRQAPGKGPEWVSVIYSDGRRTFYGDSVKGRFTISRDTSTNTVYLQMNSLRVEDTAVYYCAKGRTAGTFDGWGQGTLVTVSS the result was -0.76, 0.12, -0.37, nd, 0.16, nd (mean -0.21).
With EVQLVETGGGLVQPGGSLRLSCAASGFTLNSYGISWVRQAPGKGPEWVSVIYSDGRRCFYGDSVKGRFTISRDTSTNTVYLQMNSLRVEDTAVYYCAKGRAMGWFDSWGQGTLVTVSS the result was nd, nd, nd, nd, nd, nd.
With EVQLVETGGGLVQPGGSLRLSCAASGFTLNEYGISWVRQAPGKGPEWVSVIYSDGRRTFMGDSVKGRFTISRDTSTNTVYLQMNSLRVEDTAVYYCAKGMAAGTFDSWGQGTLVTVSS the result was 0.70, nd, nd, nd, nd, nd.
With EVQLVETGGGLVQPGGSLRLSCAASGYTLNSYGISWVRQAPGKGPEWVSVIYSDGRRTFYGDSFKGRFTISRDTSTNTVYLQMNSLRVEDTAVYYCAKGRAAGTFDSWGQGTLVTVSS the result was nd, nd, nd, nd, nd, nd.
With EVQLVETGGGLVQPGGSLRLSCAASGFTLNSYGISWVRQAPGKGPEWVSVIYSDGKRTFYIDSVKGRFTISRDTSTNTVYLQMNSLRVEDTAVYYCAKGREAGTFDSWGQGTLVTVSS the result was 1.18, 1.04, 0.99, 0.89, 1.90, 1.46 (mean 1.24).
With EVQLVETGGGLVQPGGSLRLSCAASGFTLNSYGKSWVRQAPGKGPEWVSVIYSDGRRTFYSDSVKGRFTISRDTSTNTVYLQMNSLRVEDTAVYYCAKKRAGGTFDSWGQGTLVTVSS the result was nd, nd, nd, nd, nd, nd.
With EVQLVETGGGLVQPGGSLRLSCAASKFTLNSYGISWVRQAPGKGPEWVSVIYSDGKRTFYSDSVKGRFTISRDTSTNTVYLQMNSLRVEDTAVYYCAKGKTAGTFDSWGQGTLVTVSS the result was 0.27, 0.51, 1.12, 0.78, 0.84, 0.83 (mean 0.72).
With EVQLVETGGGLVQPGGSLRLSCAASGFMLNSYGISWVRQAPGKGPEWVSVIYSDGRKTFYGDSVKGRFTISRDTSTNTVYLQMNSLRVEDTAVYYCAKGRAAGTFDSWGQGTLVTVSS the result was nd, 1.99, nd, nd, nd, nd.
With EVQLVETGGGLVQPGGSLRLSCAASGFTLNEYGISWVRQAPGKGPEWVSVIYSDGRRTFYADSVKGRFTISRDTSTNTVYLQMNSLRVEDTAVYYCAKGRAAVTFDNWGQGTLVTVSS the result was nd, nd, nd, nd, nd, nd.

4 of these entries, quoted again:

| VH | log10 Kd (nM) by replicate | mean, log10 nM |
|---|---|---|
| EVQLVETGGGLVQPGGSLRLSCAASGFDLNSYGISWVRQAPGKGPEWVSVIYSDGRRTFYIDSVKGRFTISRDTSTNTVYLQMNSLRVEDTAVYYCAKGREAGTFDSWGQGTLVTVSS | 0.12, -0.50, -0.41, -0.36, -0.13, -0.06 | -0.22 |
| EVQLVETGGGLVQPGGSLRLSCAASGFELNEYGISWVRQAPGKGPEWVSVIYSDGRRTFYKDSVKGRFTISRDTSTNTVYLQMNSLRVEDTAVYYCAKGRAAGTFDSWGQGTLVTVSS | 0.19, 0.03, -0.17, -0.14, 0.03, 0.16 | 0.02 |
| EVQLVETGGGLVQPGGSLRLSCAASGFTLNEYGISWVRQAPGKGPEWVSVIYSDGRRTFMGDSVKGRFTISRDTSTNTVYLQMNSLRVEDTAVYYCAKGMAAGTFDSWGQGTLVTVSS | 0.70, nd, nd, nd, nd, nd | 0.70 |
| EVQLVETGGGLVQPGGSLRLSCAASGFDLNSYGISWVRQAPGKGPEWVSVIYSDGRRTFYGDSVKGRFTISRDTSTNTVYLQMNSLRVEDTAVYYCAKGRTAGTFDGWGQGTLVTVSS | -0.76, 0.12, -0.37, nd, 0.16, nd | -0.21 |